Assay results: article PMC6357742, “Porphyromonas gingivalis in Alzheimer’s disease brains: Evidence for disease causation and treatment with small-molecule inhibitors” (Science Advances, 2019)

How the values were obtained:
Kgp (lysine gingipain) = Kgp (lysine gingipain) (Porphyromonas gingivalis, UniProt B2RLK2); assay: biochemical; parameters: species or system P. gingivalis
Kgp = Kgp (Porphyromonas gingivalis, UniProt B2RLK2); assay: biochemical; parameters: species or system P. gingivalis

How did the IC50 (Kgp (lysine gingipain)) turn out when `NCCCC[C@H](NC(=O)C1CCCC1)C(=O)COc1c(F)ccc(F)c1F` [COR388] was run?
Its IC50 is ≤ 0.05 nM.

And the Ki (Kgp)?
The Ki was < 0.01 nM.

What about the “inhibition constant on Kgp (in words)” value (Kgp) of the same molecule?
The value was “picomolar”.
